Measurements: PubChem BioAssay AID1159606 (Sanford-Burnham Center for Chemical Genomics, 2016)
The entries are a selection whose mix differs from that of the whole data set. The source made the active and inactive calls. Rule as the data show it: active = inhibition above about 50%; inactive = the rest.

Experiment: blockers of TWEAK-induced Fn14 reporter activity – luciferase reporter cells, uHTS, primary screen (AID 1159606)
Conditions: TWEAK-stimulated Fn14 reporter cells, luciferase luminescence, 8 h; at 10 µM; hits give high values

Row | SMILES | inhibition
1 | COC(=O)c1cc2c(s1)N=C(c1ccccc1)N(C)P2(=O)N1CCOCC1 (stereo unspecified) | inactive: -9.54%
2 | CC(=O)NC(SC(=S)N(CC(C)C)CC(C)C)C(Cl)(Cl)Cl (stereo unspecified) | inactive: 15.2%
3 | Cc1ccc(OP(=O)(Nc2ccccn2)Oc2ccc(C)cc2)cc1 | inactive: -4.96%
4 | O=C(OC1CN2CCC1CC2)c1ccccc1 (stereo unspecified) | inactive: -6.95%
5 | CCC(=O)N1C2C3N(C(=O)CC)C1C1N(C(=O)CC)C(C(N1C(=O)CC)N3C(=O)CC)N2C(=O)CC | inactive: -17.9%
6 | Cc1ccccc1OP(=O)(Nc1ccccn1)Oc1ccccc1C | inactive: 12.2%
7 | CC(NC(=O)COC(=O)C(O)(c1ccccc1)c1ccccc1)c1ccccc1 (stereo unspecified) | inactive: 9.93%
8 | CN(C)C(=O)Oc1noc2ccccc12 | inactive: -10.4%
9 | O=c1c2cc([N+](=O)[O-])ccc2[nH]c2c([N+](=O)[O-])cc([N+](=O)[O-])cc12 | active: 96.2%
10 | O=C(NC1CCS(=O)(=O)C1)NP(=S)(Oc1ccccc1)Oc1ccccc1 (stereo unspecified) | inactive: 8.76%
11 | CCNC(=S)/N=C(\N)N[N+](=O)[O-] | inactive: -6.43%
12 | c1ccc(-c2nn[nH]n2)c(-c2nn[nH]n2)c1 | inactive: 14.5%
13 | Cc1ccc(NP(=O)(Oc2cccc(C)c2)Oc2cccc(C)c2)nc1 | inactive: -11%
14 | O=P1(N(CCCl)CCCl)OCCC2CCCCN21 (stereo unspecified) | inactive: -2.86%
15 | N#C/C(=C\c1ccc(N(CCBr)CCBr)cc1)C(N)=O | inactive: -8.6%
16 | CC(=O)c1ccc(N2CC2c2ccncc2)cc1 (stereo unspecified) | inactive: 1.54%
17 | COC(=O)C1(C)COP(=O)(NCc2ccccc2)OC1 (stereo unspecified) | inactive: 0.14%
18 | Cc1ccccc1CN(C)C(=O)COC(=O)C(O)(c1ccccc1)c1ccccc1 | inactive: 1.72%
19 | C[C@@H]1C=CCP(=O)(Oc2ccccc2)O1 (stereo partly specified) | inactive: -7.2%
20 | C[C@H]1OP(=O)(Oc2ccccc2)C[C@@H]2O[C@@H]21 (stereo partly specified) | inactive: 6.67%
21 | CC(=O)Nc1ccc([As](=O)(O)O)c(O)c1 | inactive: -4.45%
22 | CC(=O)Nc1ccc(Oc2c([N+](=O)[O-])cc([N+](=O)[O-])cc2[N+](=O)[O-])cc1 | inactive: 18%
23 | O=P1(Nc2nc3ccc(Cl)cc3s2)COc2ccccc2O1 (stereo unspecified) | inactive: -3.54%
24 | CCOc1ccc(C2=NCC(CBr)S2)cc1 (stereo unspecified) | inactive: 14.9%
25 | CCc1cc(O)c([N+](=O)[O-])c(C)c1[N+](=O)[O-] | inactive: 8.74%
26 | CC(C)(C)C(=O)NC(Sc1ccccc1)C(Cl)(Cl)Cl (stereo unspecified) | inactive: -1.12%

Row | SMILES | inhibition
27 | O=P(Nc1nccs1)(c1ccccc1)c1ccccc1 | inactive: 5%
28 | CC(C)C(=O)NC(Sc1ccccc1)C(Cl)(Cl)Cl (stereo unspecified) | inactive: 30.5%
29 | c1nnnn1CCn1cnnn1 | inactive: 3.28%
30 | CC(=O)NC(SC(=S)N(C)C)C(Cl)(Cl)Cl (stereo unspecified) | inactive: -10.3%
31 | O=[N+]([O-])c1ncn(CCn2cnc([N+](=O)[O-])n2)n1 | inactive: -0.45%
32 | O=[N+]([O-])c1ccc(O)c(/C=N/Nc2ccc([N+](=O)[O-])cc2[N+](=O)[O-])c1 | active: 79.4%
33 | O=[As](O)(c1ccccc1)c1ccc(O)cc1 | inactive: 1.67%
34 | Nc1ccc([As](=O)(O)c2ccc([N+](=O)[O-])cc2)cc1 | inactive: 4.05%
35 | C(Cc1nn[nH]n1)Cc1nn[nH]n1 | inactive: 0.91%
36 | O=C(OC1CN2CCC1CC2)c1cccc(Cl)c1 (stereo unspecified) | inactive: 9.95%
37 | Nc1ccc(CCCCOc2ccccc2)cc1 | inactive: -8.04%
38 | COc1ccc(N)c([N+](=O)[O-])c1[N+](=O)[O-] | inactive: 13.9%
39 | CN(C)C1(CNC(=O)c2ccc(Cl)c(S(N)(=O)=O)c2)CCCCC1 | inactive: -0.55%
40 | O=P(Nc1ccccn1)(c1ccc(Br)cc1)c1ccc(Br)cc1 | inactive: -8.56%
41 | O=P(Nc1nc2ccccc2s1)(c1ccccc1)c1ccccc1 | inactive: 8.24%
42 | C[C@H]1OP(=O)(Oc2ccccc2)[C@H](O)[C@H](O)[C@H]1N=[N+]=[N-] (stereo partly specified) | inactive: 5.94%
43 | CC(C)(C)C(=O)NC(Sc1ccncn1)C(Cl)(Cl)Cl (stereo unspecified) | inactive: 3.29%
44 | O=[N+]([O-])c1ncn(CCn2ncnc2[N+](=O)[O-])n1 | inactive: -12.7%
45 | O=[N+]([O-])c1cccc(NC2=NCC(CBr)S2)c1 (stereo unspecified) | inactive: -19%
46 | COC(=O)C1(C)COP(=O)(Nc2ccccc2)OC1 (stereo unspecified) | inactive: 14.4%
47 | O=C(O)CNc1ccc([As](=O)(O)O)cc1 | inactive: 14.2%
48 | O=P1(N(CCCl)CCCl)OCCCS1 (stereo unspecified) | inactive: 4.75%
49 | O=C(Nc1cc([As](=O)(O)O)ccc1O)c1ccccc1 | inactive: 14.4%
50 | Nc1ccc([As](=O)(O)c2ccc(N)cc2)cc1 | inactive: -3.34%
51 | C[N+]1=C2C=CC=CC=C2SC12C([N+](=O)[O-])=CC([N+](=O)[O-])=C[C-]2[N+](=O)[O-] (stereo unspecified) | inactive: -15.9%
52 | CCN(/C(=N/P(=O)(N1CCOCC1)N1CCOCC1)N1CCOCC1)c1ccc(OC)cc1 | inactive: 3.39%

Row | SMILES | inhibition
53 | CC(C)=N/N=C(\N)N[N+](=O)[O-] | inactive: 5.4%
54 | CC(C)c1nc(Nc2ccccc2)n(P(=O)(N(C)C)N(C)C)n1 | inactive: 7.4%
55 | CN(C)C(=O)OCCc1n(C)cc[n+]1C | inactive: 12.3%
56 | c1cc(-c2nn[nH]n2)ccc1-c1nn[nH]n1 | inactive: -4.88%
57 | CC1CCN(C(=O)Oc2c(Cl)cc(Cl)c3cccnc23)CC1 | inactive: -21.5%
58 | COc1ccc(C2=NCC(CBr)S2)cc1 (stereo unspecified) | inactive: -11.9%
59 | CC(=O)N1C2C3N(C(C)=O)C1C1N(C(C)=O)C(C(N1C(C)=O)N3C(C)=O)N2C(C)=O | inactive: -4.58%
60 | O=[N+]([O-])c1cccc2n[nH]nc12 | inactive: 3.58%
61 | Cc1ccc(NP(=O)(Oc2ccccc2)Oc2ccccc2)nc1 | inactive: -12%
62 | O=[N+]([O-])c1cc([N+](=O)[O-])c(CCNc2ccccc2)c([N+](=O)[O-])c1 | inactive: 10.1%
63 | CCc1nc2c(n1)c1c(non1O)c1c2no[n+]1[O-] | inactive: 35.7%
64 | CC(C)CC(=O)NC(Sc1ccc(Cl)cc1)C(Cl)(Cl)Cl (stereo unspecified) | inactive: 7.35%
65 | Nc1cc(N)c2nonc2c1[N+](=O)[O-] | inactive: 11.2%
66 | Oc1ccccc1CNc1ccccn1 | inactive: -1.94%
67 | O=C(NC(Sc1ccncn1)C(Cl)(Cl)Cl)c1ccccc1 (stereo unspecified) | inactive: -0.94%
68 | O=[N+]([O-])C1C(O)C(O)C([N+](=O)[O-])C(O)C1O (stereo unspecified) | inactive: 10.7%
69 | NC(=O)c1cc([N+](=O)[O-])cc([N+](=O)[O-])c1N | inactive: 7.26%
70 | CN(C(=O)Cc1ccc(Cl)c(Cl)c1)[C@H]1CCCC[C@H]1N1CCCC1 | inactive: -5.58%
71 | Cc1ccc(N/C(=N/P(=O)(N2CCOCC2)N2CCOCC2)N2CCOCC2)cc1 | inactive: -1.86%
72 | COc1ccccc1OP(=O)(Nc1ccc(C)cn1)Oc1ccccc1OC | inactive: 2.18%
73 | Cc1ccc(OP(=O)(Nc2nccs2)Oc2ccc(C)cc2)cc1 | inactive: -6.3%
74 | Clc1ccc(Cl)c(NC2=NCC(CBr)S2)c1 (stereo unspecified) | inactive: 3.13%
75 | CN1CCCC(OC(=O)C(c2ccccc2)c2ccccc2)C1 (stereo unspecified) | inactive: 13.9%
76 | CCN(N=Nc1nonc1N)c1nonc1N | inactive: -10.3%
77 | Nc1cccc2ccc([As](=O)(O)O)cc12 | inactive: 28.4%
78 | O=C(O)c1ccccc1[As](=O)(O)O | inactive: 2.21%

Row | SMILES | inhibition
79 | CC(=O)Nc1ccc([As](=O)(O)O)cc1 | inactive: -3.58%
80 | CCCC1OP(N)(=O)OCC1CC (stereo unspecified) | inactive: 7.48%
81 | CN(C)P(=O)(N(C)C)n1c(Nc2ccccc2)nnc1-c1ccccc1 | inactive: -21.9%
82 | O=P(Nc1nc2ccc(Cl)cc2s1)(c1ccccc1)c1ccccc1 | inactive: 8.65%
83 | CCOP(=O)(Nc1ccccc1)OCC | inactive: 2.14%
84 | Cc1cc(SC(NC(=O)c2ccc(F)cc2)C(Cl)(Cl)Cl)ncn1 (stereo unspecified) | inactive: 21.3%
85 | CN(C(=O)Cc1ccc(Cl)c(Cl)c1)[C@H]1CCCC[C@@H]1N1CCCC1 | inactive: -20.4%
86 | Cc1ccc(NP(=O)(Oc2ccccc2F)Oc2ccccc2F)nc1 | inactive: -2.71%
87 | CC(C)c1ccc(OP(=O)(Nc2ccccn2)Oc2ccccc2F)cc1 (stereo unspecified) | inactive: -4.45%
88 | COC(=O)C1(C)COP(=O)(N2CCCCCC2)OC1 (stereo unspecified) | inactive: 22.1%
89 | ClCCSc1nnc(-c2cccnc2)o1 | inactive: -2.13%
90 | CCN(CC)C(=S)SC(NC=O)C(Cl)(Cl)Cl (stereo unspecified) | inactive: 14.1%
91 | O=C(OC1CN2CCC1CC2)c1cccc2[nH]cnc12 (stereo unspecified) | inactive: 13.8%
92 | CC(C)NC(=O)NP(=O)(Oc1ccccc1)Oc1ccccc1 | inactive: 0.4%
93 | O=[N+]([O-])c1cc([N+](=O)[O-])c(-c2ccn[nH]2)s1 | inactive: 28.6%
94 | O=[As](O)(c1ccc(O)cc1)c1ccccc1O | inactive: -11.5%
95 | C[As](=O)(O)c1cccc(C(=O)O)c1 | inactive: 14.8%
96 | COc1cc(C(=O)NCC2(N3CCOCC3)CCCCC2)ccc1OCC(C)C | inactive: 0.54%
97 | O=[N+]([O-])c1ccc(-c2cc([N+](=O)[O-])c(O)c([N+](=O)[O-])c2)cc1 | inactive: 13.2%
98 | Cc1ccc2nc3c(c(C)c2c1)CC(C(Cl)Cl)S3 (stereo unspecified) | inactive: -20.4%
99 | Cc1ccc(OP(=O)(Nc2ccc([N+](=O)[O-])cn2)Oc2ccc(C)cc2)cc1 | inactive: -6.12%
100 | [N-]=[N+]=NC1CCCCC1NC(=O)c1cc([N+](=O)[O-])cc([N+](=O)[O-])c1 (stereo unspecified) | inactive: -9.23%
101 | COc1ccc(N/C(=N/P(=O)(N2CCOCC2)N2CCOCC2)N2CCOCC2)cc1 | inactive: -7.62%
